The source of these data is PubChem BioAssay AID940 (Emory University Molecular Libraries Screening Center, 2007).

Protein sequences, listed by entry. Tags and fused reporters are not part of them. Lines headed by an entry give the natural chain unless they say otherwise; changes in a name come on top.
UniProt P43116: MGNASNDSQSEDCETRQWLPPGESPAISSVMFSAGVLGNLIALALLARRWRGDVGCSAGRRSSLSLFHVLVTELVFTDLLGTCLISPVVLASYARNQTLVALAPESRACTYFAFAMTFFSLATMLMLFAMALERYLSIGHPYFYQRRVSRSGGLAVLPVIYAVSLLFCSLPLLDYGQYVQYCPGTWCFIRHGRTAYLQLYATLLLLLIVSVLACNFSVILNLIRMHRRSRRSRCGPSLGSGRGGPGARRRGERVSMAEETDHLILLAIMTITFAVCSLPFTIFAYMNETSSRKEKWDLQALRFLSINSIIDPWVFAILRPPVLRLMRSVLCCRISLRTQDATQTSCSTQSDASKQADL

Where “and” joins values, the source holds several entries; their conditions need not be identical. Equal entries are not always repeated. Only a part is listed here, and it is no random draw. Calls of active or inactive are those of the source.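 How the source made its calls: active means compounds whose cAMP rise, as percent of the full-agonist control response, exceeds 60; inactive means the rest.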

In this test the target is Prostaglandin E2 receptor EP2 subtype (Homo sapiens) (UniProt P43116). Briefly: modulation of human EP2 prostaglandin signaling – cell-based, HTRF cAMP, PGE2 stimulation, primary screen (AID 940).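 Further: rat C6 glioma line stably carrying human EP2 under a CMV promoter; the protocol text gives 20 µM as final concentration; 100% = response of wells given 1 µM PGE2.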 As to conditions: EP2-expressing cells, cAMP HTRF FRET, PGE2 co-stimulation; at 25 µM; stronger effect = higher value. (TR-FRET usually uses a lanthanide donor and a delayed reading to cut background.)
As to `CC1CCC(C(C)C)C(OP(=O)(Nc2ccccn2)c2ccccc2)C1` (stereo not drawn), the induction was inactive: 31.8%.
Next, `Cc1nn(-c2ccccc2)c2c1P(=O)(N1CCOCC1)N(C)C(c1ccccc1)=N2` (stereo not drawn): inactive: 16.9%; `O=C(/C=C/c1ccccc1)OC1CN2CCC1CC2` (stereo not drawn): inactive: -5.39%; `CN(C)C1(CNC(=O)c2ccc(S(C)(=O)=O)cc2)CCCCC1`: inactive: -19.2%.
On to `O=P1(Nc2ncccn2)COc2ccccc2OC1`, for which the induction is inactive: 11.5%.
Next, `O=[As](O)(c1cccs1)c1cccs1`: inactive: 9.96%; `Cc1ccc(OCC(=O)OC2CN3CCC2CC3)cc1` (stereo not drawn): inactive: 25.3%; `O=P1(Nc2ccc(Br)cn2)COc2ccccc2OC1`: inactive: 9.75%.
The result for `Nc1cccc([As](=O)(O)c2ccccc2)c1` reads inactive: -19.7%; that for `CCOP(=O)(Nc1ccc(C)cn1)OCC`, inactive: 3.86%; that for `CN(CCCl)Cc1cc(Cl)c(NC2=NCCN2)c(Cl)c1`, inactive: 16.6%.
Next, `O=P1(Nc2ccccn2)COc2ccccc2OC1`: inactive: 13%.
As for `CC(C)(C)C(=O)NC(Sc1ncccn1)C(Cl)(Cl)Cl` (stereo not drawn), the induction is inactive: -9.78%.
The result for `Clc1n[nH]nc1-c1nn[nH][15n]1` reads inactive: 0.87%.
For `COC(=O)c1nsnc1NCCCl`, the induction is inactive: 16.8%.
Next, `O=[As](O)(c1ccccc1Br)c1ccccc1Br`: inactive: 0.77%; `CC(C)/C=N\N=C(\N)N[N+](=O)[O-]`: inactive: 13.4%; `CN(C(=O)Cc1ccc(Cl)c(Cl)c1)[C@@H]1CCCC[C@H]1N1CCCC1`: inactive: -6.25% and inactive: 10.4%.
Next, `O=[As](O)(O)c1cccnc1`: inactive: -18.9%; `COc1cc(C(=O)NCC2(N3CCOCC3)CCCCC2)cc(Cl)c1OC(C)C`: inactive: -0.13%; `CN(C(=O)Cc1ccc(Cl)c(Cl)c1)[C@@H]1CC[C@]2(CCCO2)C[C@H]1N1CCCC1`: inactive: 9%.
On to `O=C(OC1CN2CCC1CC2)c1ccc(Cl)cc1` (stereo not drawn), for which the induction is inactive: -1.17%.
In the case of `Cc1cccc(OCC(=O)OC2CN3CCC2CC3)c1` (stereo not drawn), the induction was inactive: 32.3%.
Next, `O=[As](O)(c1cccc(O)c1)c1cccc(O)c1`: inactive: -6.13%; `CCCOP(=S)(Nc1nc(N)cc(=O)[nH]1)OCCC`: inactive: 9.62%; `NS(=O)(=O)Cc1ccc([As](=O)(O)O)cc1`: inactive: 14.2%.
The result for `Nc1cccc2c([As](=O)(O)O)cccc12` reads inactive: 0.27%.
`O=C(CC(=O)c1ccccc1)O[C@H]1CN2CCC1CC2`: the induction is inactive: 23.5%.
The result for `Cc1ccc(NCCc2c([N+](=O)[O-])cc([N+](=O)[O-])cc2[N+](=O)[O-])cc1` reads inactive: -8.32%; that for `CCOP(=O)(Nc1cccc2ccccc12)OCC`, inactive: -0.65%; that for `COc1cc(C2NCCC3(OCCO3)C2(C)C)cc(OC)c1OC` (stereo not drawn), inactive: 15.3%.
Next, `CS(=O)(=O)c1cc([N+](=O)[O-])c2no[n+]([O-])c2c1`: inactive: -19.6%.
Next, `O=P(Nc1nccs1)(Oc1ccccc1)Oc1ccccc1`: inactive: 2.42%; `O=P(Nc1nccs1)(c1ccccc1)c1nc2ccccc2s1` (stereo not drawn): inactive: -9.87%; `CCOP1(=S)c2c(C)nn(CCC#N)c2N=C(c2ccccc2F)N1C` (stereo not drawn): inactive: -14.5%.
For the compound `Nc1ccccc1[As](=O)(O)c1ccccc1`, the induction was inactive: -11.6%.
Next, `O=C(O)COc1ccc([As](=O)(O)O)cc1[N+](=O)[O-]`: inactive: 31.9%.
The result for `O=[As](O)(O)c1ccc([As](=O)(O)O)cc1` reads inactive: 10.1%; that for `NC(=O)c1nsnc1NCCCl`, inactive: -4.45%; that for `NC(=O)Nc1ccc([As](=O)(O)O)cc1`, inactive: 19.5%.
Next, `O=[N+]([O-])c1ccc2c(c1)nnn2O`: inactive: 14.8%; `CCOP1(=S)c2c(C)nn(CCC#N)c2N=C(c2ccc(F)cc2)N1C` (stereo not drawn): inactive: 3.28%.
Regarding `CN(C(=O)Cc1ccccc1)[C@@H]1CC[C@]2(CCCO2)C[C@H]1N1CCCC1`, the induction is inactive: 16.7% and inactive: 21.3%.
The result for `O=[As](O)(c1ccc(O)cc1)c1ccccc1O` reads inactive: 2.85%; that for `C[As](=O)(O)c1cccc(C(=O)O)c1`, inactive: 3.7%; that for `Cc1ccc2nc3c(c(C)c2c1)CC(C(Cl)Cl)S3` (stereo not drawn), inactive: -1.12%.
The result for `Cc1ccc(OP(=O)(Nc2ccc([N+](=O)[O-])cn2)Oc2ccc(C)cc2)cc1` reads inactive: 5.18%; that for `CC(C)c1ccc(OP(=O)(Nc2ccccn2)Oc2ccccc2F)cc1` (stereo not drawn), inactive: 33.4%; that for `[N-]=[N+]=NCC(N)=O`, inactive: 19.1%.
Regarding `O=[As]c1ccc(S(=O)(=O)NCCO)cc1` (stereo not drawn), the induction was inactive: 0.12%.
Next, `ClCCSc1nnc(-c2cccnc2)o1`: inactive: 29.4%; `Cc1ccc(-c2nnc3n2CC(CI)S3)cc1` (stereo not drawn): inactive: -22.4%; `O=[N+]([O-])c1cc([N+](=O)[O-])c(-c2ccn[nH]2)s1`: inactive: -0.99%.
The result for `CC(C)NC(=O)NP(=O)(Oc1ccccc1)Oc1ccccc1` reads inactive: 12.5%; that for `CCN(CC)C(=S)SC(NC=O)C(Cl)(Cl)Cl` (stereo not drawn), inactive: 15%; that for `Cc1cc(=O)[nH]c(N[N+](=O)[O-])n1`, inactive: 35.2%.
The result for `O=C(OC1CN2CCC1CC2)C12CC3CC(CC(C3)C1)C2` (stereo not drawn) reads inactive: -1.85%; that for `Cc1c2c(nc3ccccc13)SC(C(Cl)Cl)C2` (stereo not drawn), inactive: -36.1%.
In the case of `COc1cc(I)ccc1[As](=O)(O)O`, the induction was inactive: 6.27%.
The result for `COc1ccc2nc(NP(=O)(c3ccccc3)c3ccccc3)sc2c1` reads inactive: 16.2%; that for `NC(=O)Nc1cc([As](=O)(O)O)cc(I)c1O`, inactive: 23.4%.
For the compound `COc1ccc(N/C(=N/P(=O)(N2CCOCC2)N2CCOCC2)N2CCOCC2)cc1`, the induction is inactive: 4.07%.
Consider `COP1(=S)c2c(C)nn(CCC#N)c2N=C(c2ccc(F)cc2)N1C` (stereo not drawn), for which the induction was inactive: 17.7%.
The result for `O=C(COc1ccccc1)OC1CN2CCC1CC2` (stereo not drawn) reads inactive: 27.1%; that for `O=C(O)[C@@H](O)c1ccc([As](=O)(O)O)cc1`, inactive: 19.4%.
The result for `CCOC(=O)c1ccc(NC(=O)C(C)(CCl)SC)cc1` (stereo not drawn) reads inactive: -3.87%; that for `CCC(C)N(CC(C)C)C(=S)SC(NC(C)=O)C(Cl)(Cl)Cl` (stereo not drawn), inactive: 32.3%; that for `Cc1ccc(N2C(=O)/C(=C/c3cn(CC(=O)NCc4ccco4)c4ccccc34)C(=O)NC2=S)cc1`, inactive: -20.9%.
Next, `CCOC(=O)Nc1ccc([As](=O)(O)O)c(O)c1`: inactive: 5.93%.
For the compound `Cc1cc(SC(NC(=O)c2ccccc2)C(Cl)(Cl)Cl)nc(C(C)C)n1` (stereo not drawn), the induction is inactive: 29.9%.
In the case of `CCOC(=O)Nc1cccc([As](=O)(O)O)c1`, the induction was inactive: 4.75%.
Take `O=[N+]([O-])c1ccc(Nc2ccc(Oc3ccc([N+](=O)[O-])cc3[N+](=O)[O-])cc2)c([N+](=O)[O-])c1`: the induction is inactive: -4.64%.
The result for `O=P(Nc1ccccn1)(c1cccc2ccccc12)c1cccc2ccccc12` reads inactive: 17%; that for `Cc1cc(SC(NC=O)C(Cl)(Cl)Cl)ncn1` (stereo not drawn), inactive: 15.2%.
Consider `O=C(Nc1cc([As](=O)(O)O)ccc1O)c1ccccc1`, for which the induction is inactive: 21.6%.
The result for `CC(C)(C)C(=O)NC(Sc1ccncn1)C(Cl)(Cl)Cl` (stereo not drawn) reads inactive: -17.6%.
Next, `O=[N+]([O-])c1ncn(CCn2ncnc2[N+](=O)[O-])n1`: inactive: -4.97%; `O=[N+]([O-])c1cccc(NC2=NCC(CBr)S2)c1` (stereo not drawn): inactive: -32.5%.
Next, `O=C(O)CNc1ccc([As](=O)(O)O)cc1`: inactive: 2.74%; `COc1ccc(C2=NCC(CBr)S2)cc1` (stereo not drawn): inactive: -1.62%.
For the compound `O=[N+]([O-])c1cccc2n[nH]nc12`, the induction was inactive: 1.81%.
Next, `CC(=O)N1C2C3N(C(C)=O)C1C1N(C(C)=O)C(C(N1C(C)=O)N3C(C)=O)N2C(C)=O`: inactive: 27.9%; `CCc1nc2c(n1)c1c(non1O)c1c2no[n+]1[O-]`: inactive: 8.73%.
Next, `O=[N+]([O-])c1cc([N+](=O)[O-])c(CCNc2ccccc2)c([N+](=O)[O-])c1`: inactive: -19.4%; `Cc1ccc(NP(=O)(Oc2ccccc2)Oc2ccccc2)nc1`: inactive: 3.72%; `C[N+]1=C2C=CC=CC=C2SC12C([N+](=O)[O-])=CC([N+](=O)[O-])=C[C-]2[N+](=O)[O-]` (stereo not drawn): inactive: -57.3%.
Next, `Nc1ccc([As](=O)(O)c2ccc(N)cc2)cc1`: inactive: 17.4%; `CCN(/C(=N/P(=O)(N1CCOCC1)N1CCOCC1)N1CCOCC1)c1ccc(OC)cc1`: inactive: 7.46%.
In the case of `CN(C)C(=O)OCCc1n(C)cc[n+]1C`, the induction is inactive: 16.5%.
Next, `CC(C)=N/N=C(\N)N[N+](=O)[O-]`: inactive: -7.57%; `O=C(CO)Nc1ccc([As](=O)(O)O)cc1`: inactive: -1.61%; `CC1CCN(C(=O)Oc2c(Cl)cc(Cl)c3cccnc23)CC1`: inactive: -4.63%.
The result for `NC(=O)c1cc([N+](=O)[O-])cc([N+](=O)[O-])c1N` reads inactive: 12.8%; that for `Cc1ccc(N/C(=N/P(=O)(N2CCOCC2)N2CCOCC2)N2CCOCC2)cc1`, inactive: 5.17%; that for `Cc1ccc(OP(=O)(Nc2nccs2)Oc2ccc(C)cc2)cc1`, inactive: 6.21%.
Next, `COc1ccccc1OP(=O)(Nc1ccc(C)cn1)Oc1ccccc1OC`: inactive: 6.01%.
Turning to `CCOc1ccc(/C=C2/C(=O)NC(=O)N(Cc3ccco3)C2=O)cc1`, the induction is inactive: -55.4%.
Consider `O=[N+]([O-])c1ccc(C[As](=O)(O)O)cc1`, for which the induction was inactive: 9.42%.
The result for `CN1CCCC(OC(=O)C(c2ccccc2)c2ccccc2)C1` (stereo not drawn) reads inactive: 2.31%; that for `Clc1ccc(Cl)c(NC2=NCC(CBr)S2)c1` (stereo not drawn), inactive: 17.6%; that for `Nc1cc(N)c2nonc2c1[N+](=O)[O-]`, inactive: 15.2%.
The result for `CC(C)CC(=O)NC(Sc1ccc(Cl)cc1)C(Cl)(Cl)Cl` (stereo not drawn) reads inactive: 15.1%.
The result for `O=C(NC(Sc1ccncn1)C(Cl)(Cl)Cl)c1ccccc1` (stereo not drawn) reads inactive: 39.4%.
